# Experimental data taken from PubChem BioAssay AID1230 (PCMD, 2008).
# The chains behind the UniProt entries cited, without tags or fusion partners.
# UniProt Q00987, whole entry: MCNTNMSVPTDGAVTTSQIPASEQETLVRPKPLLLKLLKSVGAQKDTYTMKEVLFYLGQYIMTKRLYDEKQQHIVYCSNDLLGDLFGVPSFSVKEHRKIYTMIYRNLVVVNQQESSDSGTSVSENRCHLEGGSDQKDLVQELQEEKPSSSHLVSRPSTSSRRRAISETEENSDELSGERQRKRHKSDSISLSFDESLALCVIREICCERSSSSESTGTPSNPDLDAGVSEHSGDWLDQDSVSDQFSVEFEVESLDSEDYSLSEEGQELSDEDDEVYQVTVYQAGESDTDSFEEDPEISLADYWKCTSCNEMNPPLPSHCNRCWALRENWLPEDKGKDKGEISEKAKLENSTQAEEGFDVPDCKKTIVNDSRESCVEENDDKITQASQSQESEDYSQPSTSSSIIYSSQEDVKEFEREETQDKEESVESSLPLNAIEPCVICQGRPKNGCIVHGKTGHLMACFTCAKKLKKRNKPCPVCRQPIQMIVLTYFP
# This is a selection; strong and weak results do not stand in their true shares. Active and inactive are the calls of the source.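 How the source made its calls: active means signal enhancement of 30% or more; inactive means the rest.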
# Target: E3 ubiquitin-protein ligase Mdm2 (Homo sapiens) (UniProt Q00987)
# Assay: MDM2-luciferase reporter signal enhancers, primary screen, MDM2 E3 ligase inhibitor project, cell-based, luminescence, 1536-well (AID 1230);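 further: higher signal means inhibition of MDM2 E3 ligase activity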
# Conditions: cell-based MDM2 ubiquitination luciferase reporter, 2 h; at 5 µM; active compounds read high; 0 = plate control, 100 = twice control, blank-subtracted
# Procedure, shortened: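 test system = mammalian cells stably expressing self-ubiquitinating, self-degrading MDM2 E3–luciferase fusion | quantity = 2000 cells/well | incubation = cell settling 4 h, compound treatment 2 h, both 37 °C | signal = luminescence with SteadyLite reagent, 15 min at room temperature | evaluation = % enhancement relative to plate controls after blank subtraction | benchmarks = plate controls and plate blanks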
row,SMILES,signal enhancement
1,Cc1ccc(C)c(NP(C)(=O)Oc2ccccc2)c1 (configuration not stated),inactive: -13.8%
2,CP(=O)(Nc1cccc(Br)c1)Oc1ccccc1 (configuration not stated),inactive: -2.77%
3,Cc1cc(C)cc(OP(C)(=O)Nc2ccccn2)c1 (configuration not stated),inactive: -11.8%
4,CCOC(=O)c1ccc(NP(C)(=O)Oc2cc(C)cc(C)c2)cc1 (configuration not stated),inactive: -9%
5,Cc1cc(C)cc(OP(C)(=O)Nc2ccc(C)cc2C)c1 (configuration not stated),inactive: 2.45%
6,CCN(CC)CCCOC(=O)C(O)(c1ccccc1)c1ccccc1,inactive: -13.2%
7,COc1ccccc1OP(C)(=O)Nc1ccc(C)cc1 (configuration not stated),inactive: -9.83%
8,Cc1ccc(NP(C)(=O)Oc2ccccc2)c(C)c1 (configuration not stated),inactive: -1.6%
9,CCOC(=O)c1ccc(NP(C)(=O)Oc2ccccc2)cc1 (configuration not stated),inactive: 4.39%
10,Cc1cc(C)cc(OP(C)(N)=O)c1 (configuration not stated),inactive: -9.16%
11,COc1ccccc1OP(C)(=O)Nc1cc(Cl)ccc1C (configuration not stated),inactive: -29.8%
12,COc1ccc(OP(C)(=O)Nc2cccc(F)c2)cc1 (configuration not stated),inactive: -1.85%
13,O=[N+]([O-])c1ccc2c(c1)C=Nc1ccccc1O2,inactive: -5.19%
14,CC(C)(C)c1ccc(OP(C)(=O)Nc2ccc(SC(F)(F)F)cc2)cc1 (configuration not stated),inactive: -0.15%
15,Cc1cccc(C)c1OP(C)(N)=O (configuration not stated),inactive: 6.21%
16,CP(=S)(Nn1cnnc1)Oc1ccccc1 (configuration not stated),inactive: 4.34%
17,CP(=O)(Nc1ccccc1Br)Oc1ccccc1 (configuration not stated),inactive: -17.7%
18,COc1ccccc1OP(C)(=O)Nc1ccccc1 (configuration not stated),inactive: -4.25%
19,CCOC(=O)c1ccc(NP(C)(=O)Oc2ccc(OC)cc2)cc1 (configuration not stated),inactive: -12.2%
20,CCOP(C)(=S)SCC(=O)NC(C)C(=O)O (configuration not stated),inactive: -2.49%
21,CP(=O)(Nc1ccccn1)Oc1ccc(Cl)cc1 (configuration not stated),inactive: -9.84%
22,Cc1cccc(C)c1OP(C)(=O)Nc1ccc(SC(F)(F)F)cc1 (configuration not stated),inactive: -7.99%
23,CP(=O)(Nc1ccc(SC(F)(F)F)cc1)Oc1ccc(Cl)cc1 (configuration not stated),inactive: -12.1%
24,CP(=O)(Oc1ccccc1)OC(c1ccccc1)C(F)(F)F (configuration not stated),inactive: 1.42%
25,CCc1ccc(OP(C)(=O)N2CCN(c3ccc([N+](=O)[O-])cc3)CC2)cc1 (configuration not stated),inactive: -9.53%
26,CP(=O)(NC(=O)Nc1ccccc1)Oc1ccccc1 (configuration not stated),inactive: -12.8%
27,Cc1cc(C)cc(OP(C)(=O)Nc2ccc(SC(F)(F)F)cc2)c1 (configuration not stated),inactive: 4.54%
